Test results reported in patent US10864279B2, “Linker-drug and antibody-drug conjugate (ADC) employing the same” (priority 2016, dated 2020).
pIC50: −log10 of the molar value.

How the values were obtained:
[1] = test system: HER2 high-expressing breast cancer cell lines BT-474; test: Potency test, CCK-8 cell viability, BT-474; format: cell-based; settings: HER2 expression 3+; 72-120 hours; Table 3
Experimental: (§1) Cells were seeded in Corning CellBIND 96-well plates at densities of 6×10^3 cells/well. After incubation overnight at 37° C., 5% CO2 incubator, different concentrations of ADCs were added to the cells in serial dilutions. The cells were then incubated for 72-120 hours at 37° C., 5% CO2 incubator. After 72-120 hours, the old medium was removed and the cells were rinsed once and treated with 10-fold diluted CCK-8 reagent at 37° C. for 4 hours. The 96-well plates were put in the ELISA reader to measure the absorbance wavelength at 450 nm. Cell viability was calculated by the following equation: Cell Viability (%)=(Intensity of sample/Intensity of control)×100%. IC50 values of the ADC samples were calculated using SigmaPlot software.

[2] = test system: HER2-negative cell lines MDA-MB-468; test: Potency test, CCK-8 cell viability, MDA-MB-468; format: cell-based; settings: for toxicity in MDA-MB-468 compared with commercial Kadcyla: HER2-negative cells, in words; for pIC50: HER2 expression negative, 72-120 hours, Table 4
Experimental: as §1

[3] = test system: HER2 moderate-expressing breast cancer cell lines JIMT-1 with anti-Herceptin drug resistance; test: Potency test, CCK-8 cell viability, JIMT-1; format: cell-based
Experimental: as §1

[4] = test system: Endometrial cancer tumor tissue, HER2-positive (+1); test: Tumor growth inhibition test: EC PDX model; format: in vivo, NODSCID mice; settings: in words
Experimental: (§2) Endometrial cancer tumor tissue obtained from National Taiwan University was confirmed to be HER2-positive (+1). Tumor (2-3 mm diameter) was subcutaneous implanted to NODSCID mice to test the drug efficacy of ADCs in vivo. When the average tumor size was about 100 mm^3, mice were divided into groups and ADCs were intravenously injected (10 mL/kg B.W. injection volume).

[5] = Body weight and clinical symptoms, EC PDX model; format: in vivo, NODSCID mice; settings: in words
Experimental: as §2

[6] = test system: breast cancer cell lines BT-474 (subcutaneous xenograft); test: Tumor growth inhibition test: BT-474 xenograft model; format: in vivo, NODSCID mice; settings: in words
Experimental: The length and width of the tumor were measured and the tumor size was calculated by (length×width×width×½) (mm^3) and recorded.

Herceptin-Linker-drug 3
pIC50 [1]: 9.46 | toxicity in MDA-MB-468 compared with commercial Kadcyla [2]: significantly lower than that of commercial Kadcyla

Herceptin-Linker-drug 11
pIC50 [1]: 9.55 | cell toxicity in JIMT-1 compared with other ADCs ([3]; FIG. 18C, in words): superior to the cell toxicity of other ADCs | tumor growth after 12 days of treatment ([4]; 5 mg/kg): significantly inhibited | tumor growth after 12 days of treatment ([4]; 10 mg/kg): significantly inhibited | recovery of abnormal clinical symptoms ([5]; 5 mg/kg): recovered after one week | recovery of abnormal clinical symptoms ([5]; 10 mg/kg): recovered after one week

Herceptin-Linker-drug 2
pIC50 ([3]; HER2 expression 2+ resistant, 72-120 hours, Table 3): ~6.30

Herceptin-Linker-drug 8
tumor growth after 60 days of treatment ([6]; 2.5 mg/kg): significantly inhibited | tumor growth after 60 days of treatment ([6]; 5 mg/kg): significantly inhibited

Herceptin-Linker-drug 16
toxicity in MDA-MB-468 compared with commercial Kadcyla [2]: significantly lower than that of commercial Kadcyla | pIC50 [2]: 7.41

Herceptin-Linker-drug 14
toxicity in MDA-MB-468 compared with commercial Kadcyla [2]: significantly lower than that of commercial Kadcyla | pIC50 [2]: 6.81
